B1: variant PD-L1 ECD-Fc K160M, R195G (Fc fusion, not shown: a dimerising Fc or GST)
chain: not shown
B2: variant PD-L1 ECD-Fc N45D (Fc fusion, not shown: a dimerising Fc or GST)
chain: not shown
B3: variant PD-L1 ECD-Fc N45D, K144E (Fc fusion, not shown: a dimerising Fc or GST)
chain: not shown
B4: variant PD-L1 ECD-Fc N45D, P198S (Fc fusion, not shown: a dimerising Fc or GST)
chain: not shown
B5: variant PD-L1 ECD-Fc N45D, P198T (Fc fusion, not shown: a dimerising Fc or GST)
chain: not shown
B6: variant PD-L1 ECD-Fc N45D, R195G (Fc fusion, not shown: a dimerising Fc or GST)
chain: not shown
B7: variant PD-L1 ECD-Fc N45D, R195S (Fc fusion, not shown: a dimerising Fc or GST)
chain: not shown
B8: variant PD-L1 ECD-Fc N45D, S131F (Fc fusion, not shown: a dimerising Fc or GST)
chain: not shown
B9: variant PD-L1 ECD-Fc N45D, V58D (Fc fusion, not shown: a dimerising Fc or GST)
chain: not shown
B10: variant PD-L1 ECD-Fc V129D, R195S (Fc fusion, not shown: a dimerising Fc or GST)
chain: not shown

Each binder was assayed against human PD-1 stably expressed on Jurkat/IL-2 reporter cells (Jurkat/PD-1 cells) (human) (assay: flow cytometry, Jurkat/PD-1 cells).

Going from B1 to B2, the “Fold Increase over WT PD-L1 ECD-Fc” value rises from 0.8 fold to 19.1 fold.

First: B3
Second: B4
The “Fold Increase over WT PD-L1 ECD-Fc” value of the first is lower: 19.9 fold for the first, 23.5 fold for the second.

First: B5
Second: B6
The “Fold Increase over WT PD-L1 ECD-Fc” value of the first is higher: 24.4 fold for the first, 24.3 fold for the second.

First: B7
Second: B8
The “Fold Increase over WT PD-L1 ECD-Fc” value of the first is higher: 25.7 fold for the first, 24.5 fold for the second.

Going from B9 to B10, the “Fold Increase over WT PD-L1 ECD-Fc” value falls from 30.4 fold to 1.5 fold.

Going from B1 to B2, the “MFI at 20 nM conc.” value rises from 3930 MFI to 95600 MFI.

Going from B3 to B4, the “MFI at 20 nM conc.” value rises from 99700 MFI to 117000 MFI.

B5 and B6 are the same in “MFI at 20 nM conc.” value: 122000 MFI for the first, 122000 MFI for the second.

Compared with B7, B8 is lower in “MFI at 20 nM conc.” value: 129000 MFI for the first, 122000 MFI for the second.

Going from B9 to B10, the “MFI at 20 nM conc.” value falls from 152000 MFI to 7700 MFI.
